Laboratory results published in US20230148214A1, “INDAZOLES AND AZAINDAZOLES AS LRRK2 INHIBITORS” (ESCAPE Bio, Inc., priority 2020, published 2023).

The chains behind the UniProt entries cited, without tags or fusion partners. Where a name states a change or a piece, a line headed by the entry shows the natural chain unless it says otherwise.
UniProt Q5S007, whole entry: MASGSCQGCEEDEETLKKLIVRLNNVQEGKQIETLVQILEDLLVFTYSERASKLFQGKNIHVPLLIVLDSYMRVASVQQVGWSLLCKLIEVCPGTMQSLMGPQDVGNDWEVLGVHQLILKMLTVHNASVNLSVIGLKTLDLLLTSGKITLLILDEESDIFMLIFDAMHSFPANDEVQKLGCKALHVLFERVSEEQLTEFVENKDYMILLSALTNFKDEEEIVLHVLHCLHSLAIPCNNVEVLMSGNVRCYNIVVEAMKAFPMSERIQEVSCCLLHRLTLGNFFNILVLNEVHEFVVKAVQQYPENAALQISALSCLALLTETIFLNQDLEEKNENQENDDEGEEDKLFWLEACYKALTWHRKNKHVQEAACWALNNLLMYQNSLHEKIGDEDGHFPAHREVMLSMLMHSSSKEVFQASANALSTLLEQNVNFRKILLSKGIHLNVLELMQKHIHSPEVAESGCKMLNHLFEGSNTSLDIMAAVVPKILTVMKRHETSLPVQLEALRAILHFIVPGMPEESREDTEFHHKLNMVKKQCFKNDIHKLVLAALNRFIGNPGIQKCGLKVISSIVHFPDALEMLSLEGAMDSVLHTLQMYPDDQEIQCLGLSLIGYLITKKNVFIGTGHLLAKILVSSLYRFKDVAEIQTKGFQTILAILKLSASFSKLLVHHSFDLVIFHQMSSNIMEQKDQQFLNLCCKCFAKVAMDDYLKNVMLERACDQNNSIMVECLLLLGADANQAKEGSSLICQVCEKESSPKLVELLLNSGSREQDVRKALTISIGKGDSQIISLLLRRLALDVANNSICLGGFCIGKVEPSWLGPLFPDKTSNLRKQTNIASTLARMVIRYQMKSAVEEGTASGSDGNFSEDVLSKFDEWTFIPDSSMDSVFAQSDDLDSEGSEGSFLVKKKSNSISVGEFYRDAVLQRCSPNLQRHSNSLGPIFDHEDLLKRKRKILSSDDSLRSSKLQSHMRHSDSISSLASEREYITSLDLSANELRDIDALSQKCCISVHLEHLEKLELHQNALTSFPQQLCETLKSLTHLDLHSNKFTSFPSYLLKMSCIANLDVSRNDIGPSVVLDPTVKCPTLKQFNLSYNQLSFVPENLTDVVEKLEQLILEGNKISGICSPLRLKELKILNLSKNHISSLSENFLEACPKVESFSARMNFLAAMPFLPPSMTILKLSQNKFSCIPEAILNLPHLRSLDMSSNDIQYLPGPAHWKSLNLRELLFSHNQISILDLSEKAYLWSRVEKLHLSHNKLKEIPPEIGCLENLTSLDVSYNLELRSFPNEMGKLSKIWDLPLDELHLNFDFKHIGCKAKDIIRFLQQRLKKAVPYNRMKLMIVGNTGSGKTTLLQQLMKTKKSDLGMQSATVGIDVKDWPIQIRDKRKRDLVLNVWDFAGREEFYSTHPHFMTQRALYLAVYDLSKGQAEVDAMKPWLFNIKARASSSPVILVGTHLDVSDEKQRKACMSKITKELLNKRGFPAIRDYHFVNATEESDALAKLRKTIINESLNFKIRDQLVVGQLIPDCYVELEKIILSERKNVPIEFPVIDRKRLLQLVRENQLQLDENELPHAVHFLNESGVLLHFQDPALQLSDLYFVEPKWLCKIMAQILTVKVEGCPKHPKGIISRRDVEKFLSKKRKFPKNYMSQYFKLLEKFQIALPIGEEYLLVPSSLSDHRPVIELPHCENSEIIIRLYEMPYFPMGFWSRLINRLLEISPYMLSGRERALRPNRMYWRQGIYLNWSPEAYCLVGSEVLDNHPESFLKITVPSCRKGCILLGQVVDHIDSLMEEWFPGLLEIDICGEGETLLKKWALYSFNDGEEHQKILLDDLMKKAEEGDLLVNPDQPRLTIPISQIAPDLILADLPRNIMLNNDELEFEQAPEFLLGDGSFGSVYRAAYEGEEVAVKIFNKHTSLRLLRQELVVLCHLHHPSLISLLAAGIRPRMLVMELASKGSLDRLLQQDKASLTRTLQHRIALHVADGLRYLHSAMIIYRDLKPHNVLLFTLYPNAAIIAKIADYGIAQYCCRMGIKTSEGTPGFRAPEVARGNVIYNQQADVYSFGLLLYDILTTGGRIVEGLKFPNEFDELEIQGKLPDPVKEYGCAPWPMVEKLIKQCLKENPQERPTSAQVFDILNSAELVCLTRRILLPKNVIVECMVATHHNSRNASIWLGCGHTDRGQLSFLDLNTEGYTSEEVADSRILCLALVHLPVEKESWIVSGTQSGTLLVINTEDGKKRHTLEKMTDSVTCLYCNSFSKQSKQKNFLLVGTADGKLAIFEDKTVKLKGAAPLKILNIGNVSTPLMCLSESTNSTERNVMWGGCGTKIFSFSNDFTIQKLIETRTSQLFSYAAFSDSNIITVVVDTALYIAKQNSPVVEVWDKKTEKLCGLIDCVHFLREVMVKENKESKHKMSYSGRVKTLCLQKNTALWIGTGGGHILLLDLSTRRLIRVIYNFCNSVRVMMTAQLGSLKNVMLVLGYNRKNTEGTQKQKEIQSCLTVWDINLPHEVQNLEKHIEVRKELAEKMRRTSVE
UniProt Q5S007, whole entry G2019S: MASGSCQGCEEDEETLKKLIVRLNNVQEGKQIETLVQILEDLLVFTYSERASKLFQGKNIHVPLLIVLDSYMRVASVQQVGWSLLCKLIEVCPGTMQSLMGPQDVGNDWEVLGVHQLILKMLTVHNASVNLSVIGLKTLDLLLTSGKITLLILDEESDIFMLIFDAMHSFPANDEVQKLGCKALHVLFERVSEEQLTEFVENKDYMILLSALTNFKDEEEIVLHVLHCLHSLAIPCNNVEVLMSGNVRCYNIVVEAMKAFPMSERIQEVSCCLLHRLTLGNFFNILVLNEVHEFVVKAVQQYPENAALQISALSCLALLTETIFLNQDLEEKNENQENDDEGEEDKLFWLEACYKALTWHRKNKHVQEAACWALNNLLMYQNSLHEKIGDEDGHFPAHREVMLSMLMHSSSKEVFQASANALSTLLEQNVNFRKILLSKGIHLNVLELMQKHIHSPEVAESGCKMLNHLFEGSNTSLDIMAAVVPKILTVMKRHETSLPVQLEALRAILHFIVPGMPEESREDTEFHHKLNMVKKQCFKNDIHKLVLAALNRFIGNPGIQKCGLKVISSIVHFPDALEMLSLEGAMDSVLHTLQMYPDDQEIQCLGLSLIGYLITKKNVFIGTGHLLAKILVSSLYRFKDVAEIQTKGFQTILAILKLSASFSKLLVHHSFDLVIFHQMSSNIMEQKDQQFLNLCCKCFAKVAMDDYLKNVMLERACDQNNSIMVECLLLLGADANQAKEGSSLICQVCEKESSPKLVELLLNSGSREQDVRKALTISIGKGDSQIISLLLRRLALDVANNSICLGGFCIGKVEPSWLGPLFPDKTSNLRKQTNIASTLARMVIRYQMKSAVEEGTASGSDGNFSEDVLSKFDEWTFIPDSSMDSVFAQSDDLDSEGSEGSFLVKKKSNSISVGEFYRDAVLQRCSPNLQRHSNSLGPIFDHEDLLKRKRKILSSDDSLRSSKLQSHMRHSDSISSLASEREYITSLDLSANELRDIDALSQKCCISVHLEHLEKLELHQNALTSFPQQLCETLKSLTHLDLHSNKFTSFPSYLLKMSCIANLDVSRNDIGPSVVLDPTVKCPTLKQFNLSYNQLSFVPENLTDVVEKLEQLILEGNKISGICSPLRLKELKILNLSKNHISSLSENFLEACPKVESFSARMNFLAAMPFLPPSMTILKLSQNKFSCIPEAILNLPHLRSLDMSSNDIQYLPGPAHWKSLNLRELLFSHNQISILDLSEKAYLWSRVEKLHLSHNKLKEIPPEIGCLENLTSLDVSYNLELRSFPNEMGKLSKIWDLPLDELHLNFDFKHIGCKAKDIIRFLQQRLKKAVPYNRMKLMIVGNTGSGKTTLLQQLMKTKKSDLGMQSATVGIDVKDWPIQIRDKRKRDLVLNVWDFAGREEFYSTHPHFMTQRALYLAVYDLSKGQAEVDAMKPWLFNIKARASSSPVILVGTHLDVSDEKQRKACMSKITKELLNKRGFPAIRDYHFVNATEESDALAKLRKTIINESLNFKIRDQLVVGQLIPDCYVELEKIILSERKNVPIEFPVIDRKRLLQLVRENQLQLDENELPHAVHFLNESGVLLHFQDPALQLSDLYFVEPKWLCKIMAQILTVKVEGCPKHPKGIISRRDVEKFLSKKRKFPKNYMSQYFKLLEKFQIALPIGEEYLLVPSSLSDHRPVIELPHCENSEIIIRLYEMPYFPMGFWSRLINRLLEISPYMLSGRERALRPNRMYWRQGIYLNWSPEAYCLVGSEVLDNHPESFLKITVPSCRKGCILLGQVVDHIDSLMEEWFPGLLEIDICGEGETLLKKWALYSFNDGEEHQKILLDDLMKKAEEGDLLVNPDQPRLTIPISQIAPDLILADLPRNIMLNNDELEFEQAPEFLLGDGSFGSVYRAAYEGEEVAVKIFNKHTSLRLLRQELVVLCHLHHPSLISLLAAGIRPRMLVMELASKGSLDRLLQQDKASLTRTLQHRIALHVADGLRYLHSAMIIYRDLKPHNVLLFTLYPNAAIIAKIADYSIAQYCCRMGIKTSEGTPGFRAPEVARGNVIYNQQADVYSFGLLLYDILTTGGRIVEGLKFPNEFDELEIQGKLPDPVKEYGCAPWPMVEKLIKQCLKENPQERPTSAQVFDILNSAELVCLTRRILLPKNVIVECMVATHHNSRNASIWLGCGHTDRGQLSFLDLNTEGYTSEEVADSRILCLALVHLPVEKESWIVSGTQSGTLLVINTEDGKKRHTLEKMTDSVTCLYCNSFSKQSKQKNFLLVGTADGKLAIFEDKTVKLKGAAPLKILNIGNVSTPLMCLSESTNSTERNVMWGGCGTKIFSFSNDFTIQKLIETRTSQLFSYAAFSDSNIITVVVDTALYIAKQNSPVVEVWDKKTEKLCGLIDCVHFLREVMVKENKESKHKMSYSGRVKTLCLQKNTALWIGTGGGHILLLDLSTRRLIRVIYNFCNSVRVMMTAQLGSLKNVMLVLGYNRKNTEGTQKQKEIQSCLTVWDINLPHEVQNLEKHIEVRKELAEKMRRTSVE

Columns and labels:
LRRK2 WT = LRRK2 WT (Homo sapiens, UniProt Q5S007); experiment: LRRK2 Kinase Activity Assay (LanthaScreen TR-FRET), wild type; details: read-out: LRRK2 WT IC50; recombinant wild type LRRK2, 25 μM ATP, 400 nM LRRKtide, 60 min; class symbols
LRRK2 G2019S = LRRK2 G2019S (Homo sapiens, UniProt Q5S007, G2019S); experiment: LRRK2 Kinase Activity Assay (LanthaScreen TR-FRET), G2019S; details: read-out: LRRK2 G2019S IC50; recombinant G2019S-LRRK2, 25 μM ATP, 400 nM LRRKtide, 60 min; class symbols

Structure (SMILES) | IC50 (LRRK2 WT) [nM] | IC50 (LRRK2 G2019S) [nM]
Cc1cc2[nH]nc(-c3cnco3)c2cc1NC1CCCc2cc(C#N)cnc21 (single isomer, unassigned) | < 100 | < 100
N#Cc1ccc2c(c1)CCCC2Oc1ccc2[nH]nc(C(F)(F)F)c2c1 (single isomer, unassigned) | 1000 to 10000 | < 100
